Data from patent US20240190851A1, “FURAN FUSED RING-SUBSTITUTED GLUTARIMIDE COMPOUND” (MEDSHINE DISCOVERY INC., priority 2021, published 2024).

Sequences of proteins named here, by UniProt entry; tags and fusion partners are left off.
UniProt P10275, whole entry F877L: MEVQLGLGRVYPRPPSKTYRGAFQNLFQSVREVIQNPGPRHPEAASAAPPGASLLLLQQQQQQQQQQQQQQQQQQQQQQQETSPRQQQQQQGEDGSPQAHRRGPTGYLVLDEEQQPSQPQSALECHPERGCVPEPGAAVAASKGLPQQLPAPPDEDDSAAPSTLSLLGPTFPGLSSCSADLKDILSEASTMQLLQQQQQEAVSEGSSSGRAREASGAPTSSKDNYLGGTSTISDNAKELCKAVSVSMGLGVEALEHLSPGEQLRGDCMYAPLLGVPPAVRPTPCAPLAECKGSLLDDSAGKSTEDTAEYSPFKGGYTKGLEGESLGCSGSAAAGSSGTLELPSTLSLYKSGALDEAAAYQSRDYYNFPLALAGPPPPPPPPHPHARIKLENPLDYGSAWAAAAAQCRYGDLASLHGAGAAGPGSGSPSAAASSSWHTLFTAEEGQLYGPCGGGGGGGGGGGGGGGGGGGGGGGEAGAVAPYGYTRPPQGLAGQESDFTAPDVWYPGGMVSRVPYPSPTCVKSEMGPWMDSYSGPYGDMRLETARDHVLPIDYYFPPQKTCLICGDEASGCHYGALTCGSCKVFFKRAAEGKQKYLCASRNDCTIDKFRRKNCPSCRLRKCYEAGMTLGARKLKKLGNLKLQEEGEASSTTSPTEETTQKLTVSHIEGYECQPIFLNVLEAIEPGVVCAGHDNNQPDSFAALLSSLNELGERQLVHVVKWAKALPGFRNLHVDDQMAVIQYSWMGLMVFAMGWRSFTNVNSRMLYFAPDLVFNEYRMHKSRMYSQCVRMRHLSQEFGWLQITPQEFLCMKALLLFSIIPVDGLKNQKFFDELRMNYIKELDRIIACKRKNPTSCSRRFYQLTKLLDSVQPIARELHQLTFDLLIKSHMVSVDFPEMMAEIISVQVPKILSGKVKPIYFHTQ

Experiments:
AR F876L = AR F876L (Homo sapiens, UniProt P10275, F877L); experiment: In cell western of AR protein in 293T AR F876L cells; details: AR degradation, 48 hours
Description: Experimental purpose: In this experiment, the effects of compounds WX015, WX016, and WX017 on the expression level of AR protein with point mutation in cell line 293T AR F876L were detected by in cell western assay to evaluate the degradation effect of compounds on proteins with AR F876L point mutation.
The cell line was cultured in a 37° C., 5% CO2 incubator. Regular passage, and cells in logarithmic growth phase were taken for plating.
2. Cell Plating: • 1) Cells were stained with trypan blue and viable cells were counted. • 2) The cell concentration was adjusted to an appropriate concentration with a density of 20000/well. • 3) 90 μL of cell suspension per well was added to a 96-well culture plate, and cell-free culture medium was added to the blank control well. • 4) The culture plate was cultured overnight in a 37° C., 5% CO2 incubator with 100% relative humidity.
3. Preparation of compound storage plate and in cell western detection: • 1) Preparation of 400× compound storage plate: The compound was serially diluted with DMSO from the highest concentration to the lowest concentration. • 2) Preparation of 10× compound working solution: To a V-bottom 96-well plate was added 78 μL of cell culture medium, and 2 μL of compound was pipetted from a 400× compound storage plate and added to the cell culture medium of the 96-well plate. 2 μL of DMSO was added to vehicle control and blank control. After the compound or DMSO was added, blowing with a pipette and mixing well were carried out. • 3) Administration: 10 μL of 10× compound working solution was added to the cell culture plate. To vehicle control and blank control was added 10 μL of DMSO-cell culture medium mixture. […] The plate was added with 50 μL of primary antibody diluted with Licor blocking buffer per well (no primary antibody was added to DMSO wells), incubated overnight at 4° C., and then washed five times with PBST (containing 0.1% Triton-X) for 5 minutes each time. • 9) The plate was added with 50 μL of secondary antibody diluted with Licor blocking buffer per well, incubated at room temperature for 1 hour, washed three times with PBST (containing 0.1% Triton-X), washed twice with ddH2O, and then added with 100 μL of PBS per well for detection. • 10) Detection: PBS was poured out of the well plate, and the fluorescence signal at 700 nm per well was detected by Li—COR odyssey two-color near-infrared imager.
Relative quantification of the density intensity of immunoblot chemiluminescence bands was performed using Image Studio Ver 5.2 software.

[1] = Pharmacokinetic evaluation in mice
Excerpt: (§1) In this study, CB-17 SCID male mice were selected as experimental animals for the test compounds, and LCMS/MS method was used to quantify plasma concentrations of the test compound and the reference compound intravenously injected or orally administered to mice at different time points, so as to evaluate the pharmacokinetic profile of the test drug in mice.
CB-17 SCID mice (male, 20 to 30 g, 7 to 10 weeks old, Beijing Vital River or Shanghai SLAC).
A clarified solution or suspension of the test compound was injected into mice via the tail vein (without fasting), or intragastrically administered to mice (without fasting). For intravenous injection, blood was collected via the jugular vein puncture at 0 h (pre-administration), 0.083 h, 0.25 h, 0.5 h, 1 h, 2 h, 4 h, 8 h, and 24 h after administration, and placed in an anticoagulant tube added with EDTA-K2. The mixture was thoroughly vortexed and mixed, and centrifuged at 13000 rpm for 10 minutes at 4° C. For oral administration, blood was collected via the jugular vein puncture at 0 h (pre-administration), 0.5 h, 1 h, 2 h, 4 h, 6 h, 8 h, and 24 h after administration, and placed in an anticoagulant tube added with EDTA-K2. The mixture was thoroughly vortexed and mixed, and centrifuged at 13000 rpm for 10 minutes. Plasma concentrations were determined by LC-MS/MS method, and relevant pharmacokinetic parameters were calculated using WinNonlin™ Version 6.3 (Pharsight, Mountain View, CA) pharmacokinetic software with non-compartmental model linear-log trapezoidal method.

[2] = Pharmacokinetic evaluation in Beagles
Description: as §1, with “Beagles” for “CB-17 SCID male mice”, “Beagles” for “mice”, “Beagles.” for “mice.”
Beagles (male, Jiangsu Yadong Institute of Experimental Animals Co., Ltd.).
A clarified solution or suspension of the test compound was injected into Beagles via the tail vein (normal feeding), or intragastrically administered to Beagles (normal feeding). For intravenous injection, blood was collected via the forelimb vein puncture at 0 h (pre-administration), 0.25 h, 0.5 h, 1 h, 2 h, 4 h, 6 h, 8 h, 24 h, and 48 h after administration, and placed in an anticoagulant tube added with EDTA-K2. The collected blood sample was placed on ice, and centrifuged to separate plasma within 1 hour (centrifugation conditions: 6000 g, 3 minutes, 2 to 8° C.). For oral administration, blood was collected via the forelimb vein puncture at 0 h (pre-administration), 0.25 h, 0.5 h, 1 h, 2 h, 4 h, 6 h, 8 h, 24 h, 48 h after administration, and placed in an anticoagulant tube added with EDTA-K2. The collected blood sample was placed on ice, and centrifuged to separate plasma within 1 hour (centrifugation conditions: 6000 g, 3 minutes, 2 to 8° C.). Plasma concentrations were determined by LC-MS/MS method, and relevant pharmacokinetic parameters were calculated using WinNonlin™ Version 8.2.0 (Pharsight, Mountain View, CA) pharmacokinetic software with non-compartmental model linear-log trapezoidal method.

[3] = intravenous injection (1 mg/mL)
[4] = intravenous injection (0.5 mg/mL)

SMILES	DC50 (AR F876L)	Dmax (AR F876L)	Area under the drug-time curve (0-last) [1, 3]	Half-life [1, 3]	Plasma clearance rate [1, 3]	Area under the drug-time curve (0-last) ([1]; oral administration (10 mg/mL))	Bioavailability F ([1]; oral administration (10 mg/mL))	Peak concentration ([1]; oral administration (10 mg/mL))	Time to peak concentration ([1]; oral administration (10 mg/mL))	Area under the drug-time curve (0-last) [2, 4]	Plasma clearance rate [2, 4]	Area under the drug-time curve (0-last) ([2]; oral administration (3 mg/mL))	Bioavailability F ([2]; oral administration (3 mg/mL))	Peak concentration ([2]; oral administration (3 mg/mL))	Time to peak concentration ([2]; oral administration (3 mg/mL))
N#Cc1ccc(O[C@H]2CC[C@H](NC(=O)c3ccc(N4CCC(CN5CCN(c6cccc7c6ccc6occ(C8CCC(=O)NC8=O)c67)CC5)CC4)nn3)CC2)cc1Cl (single isomer, unassigned) [WX017]	97 nM	95%	4.651 µM·h	8.31 h	3.92 mL/min/kg	22.39 µM·h	48.1%	1227 nmol/L	24 h	1.713 µM·h	5.3 mL/min/kg	4.808 µM·h	46.8%	178 nmol/L	4.67 h
N#Cc1ccc(O[C@H]2CC[C@H](NC(=O)c3ccc(N4CCC(CN5CCN(c6cccc7c6ccc6occ(C8CCC(=O)NC8=O)c67)CC5)CC4)nn3)CC2)cc1Cl (single isomer, unassigned) [WX016]	18 nM	86%	6.192 µM·h	31.4 h	1.41 mL/min/kg	30.541 µM·h	49.3%	1770 nmol/L	24 h	2.641 µM·h	0.66 mL/min/kg	5.442 µM·h	34.3%	175 nmol/L	6 h
